The assay has as its system glucosyltransferase. The assay can be described thus: Inhibition of insoluble glucan formation by glucosyltransferase from dental caries-inducing microorganism. The assay is classed as biochemical, Streptococcus sobrinus strain (ATCC 27351). The following applies: sucrose plus test saccharide (one ml of one w/v % each), 37° C., 16 hours. The method, then: To a mixture solution consisting of one ml of one w/v % sucrose solution, one ml of one w/v % of a test saccharide solution, and 1.5 ml of 0.1M phosphate buffer (pH 6.8) was added 0.5 ml solution containing a crude glucosyltransferase specimen in a total protein content of 10 mg, and the mixture solution was placed in a small test tube which was then fixed and slanted to give a grade 30 degrees and allowed to react at 37° C. for 16 hours. The reaction mixture was transferred gently to another test tube and mixed with a solution obtained by washing carefully with 4 ml water the remaining substances adhered to the inner walls of the small test tube, and the mixture solution was centrifuged to obtain a precipitate as a non-adsorbed glucan. The amounts of the adsorbed- and non-adsorbed glucans thus obtained were respectively quantified by the anthrone-sulfuric acid method, and the total amount of them was regarded as the amount of the formed insoluble glucans. As a control system, a reaction system using water in place of the test saccharide solution, i.e. a reaction system using sucrose as a saccharide, was provided. […]

One compound from patent publication US5858992A, “Non-reducing saccharides, their preparation and use” (Kabushiki Kaisha Hayashibara Seibutsu Kagaku Kenkyujo, priority 1995, dated 1999) can be followed below.

For `OC[C@H]1O[C@H](OC[C@H]2OC(O)[C@H](O)[C@@H](O)[C@@H]2O)[C@H](O)[C@@H](O)[C@@H]1O` (stereo partly drawn) [Isomaltose, reference compound], under “sucrose alone control 923”, the “Yield of non-adsorbed glucans” value was 305 pg/mL. Also, where the note is “sucrose alone control 1,160”, the “Yield of adsorbed glucans” value came out at 67 pg/mL. In addition, the “Inhibitory percentage (%) on insoluble glucans formation” value (vs sucrose alone) is given as 82.2%.
